In US20250041279A1, “THERAPEUTIC MEDICINE FOR HEART DISEASE OR SKELETAL MUSCLE DISEASE” (SHIONOGI & CO., LTD., priority 2021, published 2025):

Assays:
[1] = Metabolic stability test, human liver microsomes; type: in vitro ADME; conditions: 37° C., 30 minutes, NADPH
[2] = Metabolic stability test, rat; type: in vitro ADME; conditions: 30 minutes

| Remaining amount of compound, Human [1] | Remaining amount of compound, Rat [2] | Compound |
| --- | --- | --- |
| 94.8% | 78% | CC(=O)N[C@@H](C)CO[C@H]1CC[C@H](Oc2nc3c(F)cc(OCC(F)F)c(F)c3n2C)CC1 |
| 93.2% | 74% | CC(=O)N[C@@H](C)C(F)(F)C[C@H]1CC[C@H](Oc2nc3c(F)cc(OCC(F)F)c(F)c3n2C)CO1 |
